Results reported in patent US20230340011A1 (Asteroid Therapeutics, priority 2022, published 2023).
Where two headings read alike, the source gives them in different places.

The chains behind the UniProt entries cited, without tags or fusion partners.
UniProt P55055, whole entry: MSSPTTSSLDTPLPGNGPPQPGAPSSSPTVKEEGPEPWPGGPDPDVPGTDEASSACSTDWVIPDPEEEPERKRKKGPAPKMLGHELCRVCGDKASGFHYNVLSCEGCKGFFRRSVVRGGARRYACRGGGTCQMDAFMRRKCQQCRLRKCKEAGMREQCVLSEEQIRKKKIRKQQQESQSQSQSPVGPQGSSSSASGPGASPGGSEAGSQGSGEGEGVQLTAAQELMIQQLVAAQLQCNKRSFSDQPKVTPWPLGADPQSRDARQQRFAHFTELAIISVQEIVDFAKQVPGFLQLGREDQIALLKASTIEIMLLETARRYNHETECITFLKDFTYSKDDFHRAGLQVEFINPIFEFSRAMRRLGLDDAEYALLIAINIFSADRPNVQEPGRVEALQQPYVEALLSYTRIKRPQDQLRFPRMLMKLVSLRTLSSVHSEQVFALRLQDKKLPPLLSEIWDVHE

Experiments:
LXRβ [1] = molecular target: T1, LXRβ (Homo sapiens (Human), UniProt P55055); assay: In vitro assay LXRβ: PathHunter NHR CHO cells, LXRβ / Steroid Receptor Co-activator Peptide enzyme fragment complementation; format: cell-based
Method in brief: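 Co-activator recruitment measured by chemiluminescence after signal generation. The CHO line carries full-length human LXRβ tagged with ProLink and an SRCP–enzyme acceptor fusion in the nucleus; cells sat overnight at 37° C before testing, in charcoal-dextran filtered serum medium with 1% final vehicle.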

SREBP-2 [2] = molecular target: T2, SREBP-2 (Homo sapiens (Human), UniProt Q12772); assay: In vitro assay SREBP-2: PathHunter U2OS SREBP-2 Nuclear Translocation Cell Line, U18666A-stimulated; format: cell-based; settings: read-out: SREBP-2 IC50
LXRβ [3] = molecular target: T1, LXRβ; assay: LXRβ PPI (category A-D, Tables 1 and 3); format: biochemical; settings: Table 3, trans-AB examples
SREBP-2 [4] = molecular target: T2, SREBP-2; assay: SREBP-2 IC50 (category A-D, Tables 1 and 3); format: cell-based; settings: Table 3, trans-AB examples
[5] = PathHunter NHR CHO cells, full-length human LXRβ and SRCP, chemiluminescent signal, read-out: LXRβ PPI

| Molecule | EC50 (LXRβ [1]; [5]) | IC50 (SREBP-2 [2]) | LXRβ PPI (LXRβ [3]) | IC50 (SREBP-2 [4]) | EC50 (LXRβ [1]) | IC50 (SREBP-2 [2]; PathHunter U2OS SREBP-2 nuclear translocation cells, U18666A 10 μM, overnight (16 hours)) |
| --- | --- | --- | --- | --- | --- | --- |
| C[C@H](CCC(=O)N1CCCS(=O)(=O)CC1)[C@H]1CC[C@H]2[C@@H]3CC=C4C[C@@H](O)CC[C@]4(C)[C@H]3CC[C@]12C [Example 355, {[(1R,3aS,3bS,5S,5aR,7R,9aR,9bS,11aR)-7-[(tert-butyldimethylsilyl)oxy]-9a,11a-dimethyl-1-[(2R,3E)-6-methyl-5-(trifluoromethyl)-5-[(trimethylsilyl)oxy]hept-3-en-2-yl]-hexadecahydro-1H-cyclopenta[a]phenanthren-5-yl]oxy}(tert-butyl)dimethylsilane] | > 10000 nM | 250 to 1000 nM | – | – | – | – |
| (R)-4-((3S,8S,9S,10R,13R,14S,17R)-3-hydroxy-10,13-dimethyl-2,3,4,7,8,9,10,11,12,13,14,15,16,17-tetradecahydro-1H-cyclopenta[a]phenanthren-17-yl)-N-methoxy-N-(3,3,3-trifluoropropyl) pentalamide [Example 65] | 1000 to 10000 nM | < 250 nM | B (250 nM-1000 nM) | < 250 nM | – | – |
| C[C@H](CCC(=O)N1CCSCC1)[C@H]1CC[C@H]2[C@@H]3CC=C4C[C@@H](O)CC[C@]4(C)[C@H]3CC[C@]12C [Example 8, (R)-4-((3S,8S,9S,10R,13R,14S,17R)-3-hydroxy-10,13-dimethyl-2,3,4,7,8,9,10,11,12,13,14,15,16,17-tetradecahydro-1H-cyclopenta[a]phenanthren-17-yl)-1-thiomorpholinopentan-1-one] | – | – | D (>10000 nM) | 250 to 1000 nM | 250 to 1000 nM | < 250 nM |
